Data: patent US11077196B2, “Abuse-deterrent pharmaceutical composition” (priority 2016, dated 2021)

System: laccase
Settings: 1000 mg L−1 opioid, 10 Units laccase per ml, NaPi Buffer pH 7 50 mM

With `CN1CC[C@]23c4c5ccc(O)c4O[C@H]2C(=O)CC[C@H]3[C@H]1C5` [hydromorphone, 4,5[alpha]-epoxy-3-hydroxy-17-methyl-6-morphinanone] the “oxygen concentration / laccase activity on the opioid” value was “showed laccase activity”.
